Each block holds one compound with its values, some of them ahead of it.
How the values were obtained:
DCAF1 (1058-1396) [1] = target: T1, DCAF1 (1058-1396) (Homo sapiens, UniProt Q9Y4B6); assay: covalent binding by intact mass spectrometry analysis; details: DCAF1 5 μM, compound 200 μM, 8 h at rt
DCAF1 (1058-1396) [2] = target: T1, DCAF1 (1058-1396); assay: Covalent binding to DCAF1 by intact mass spectrometry; details: 200 μM compound, 5 μM DCAF1, 8 h, rt
ERα [3] = target: T2, ERα (Homo sapiens, UniProt P03372); assay: ERα protein levels in T47D cells (lasofoxifene-based compounds); details: 24-hour treatment, serum-free, 1 μM
ERα [4] = target: T2, ERα; assay: ERα degradation in T47D cells; details: serum starved 2 hours, 24 hours, serum-free
BRD4 [5] = target: T3, BRD4 (Homo sapiens, UniProt O60885); assay: BRD4 protein levels in MV4;11 cells; details: 10 μM, FIG. 5B
BRD4 [6] = target: T3, BRD4; assay: BRD4 degradation in MV4;11 cells (immunoblotting)
MV4;11 cells = assay: Cell viability inhibition of MV4;11 cells (CellTiter-Glo); details: read-out: Cell viability inhibition IC50, 3 days, 3-fold serial dilution
cyclin D1 [7] = assay: cyclin D1 protein levels in MDA-MB-157 cells (PF-07220060-based compounds); details: 16-hour treatment
cyclin D1 [8] = assay: cyclin D1 protein levels in T47D cells (palbociclib-based compounds); details: 16 hours
CDK4 [9] = target: T4, CDK4 (Homo sapiens, UniProt P11802); assay: CDK4 protein levels in MOLT-4 cells by immunoblotting; details: 8 hours
CDK4 [10] = target: T4, CDK4; assay: CDK4 degradation in MOLT-4 cells (immunoblotting); details: 8 hours
cyclin D1 [11] = assay: cyclin D1 protein levels in T47D and Calu-1 cells (PF-06873600-based compounds); details: 16-hour treatment
CDK4 [12] = target: T4, CDK4; assay: CDK4 protein levels in T47D and Calu-1 cells (PF-06873600-based compounds); details: 16-hour treatment
cyclin D1 [13] = assay: Cyclin D1 degradation in T47D cells (immunoblotting); details: 16 hours
CDK4 [14] = target: T4, CDK4; assay: CDK4 degradation in T47D cells (immunoblotting); details: 16 hours

By UniProt entry, the sequences of proteins in these tests, tags left out. Residues count along the entry.
UniProt Q9Y4B6, 1058-1396: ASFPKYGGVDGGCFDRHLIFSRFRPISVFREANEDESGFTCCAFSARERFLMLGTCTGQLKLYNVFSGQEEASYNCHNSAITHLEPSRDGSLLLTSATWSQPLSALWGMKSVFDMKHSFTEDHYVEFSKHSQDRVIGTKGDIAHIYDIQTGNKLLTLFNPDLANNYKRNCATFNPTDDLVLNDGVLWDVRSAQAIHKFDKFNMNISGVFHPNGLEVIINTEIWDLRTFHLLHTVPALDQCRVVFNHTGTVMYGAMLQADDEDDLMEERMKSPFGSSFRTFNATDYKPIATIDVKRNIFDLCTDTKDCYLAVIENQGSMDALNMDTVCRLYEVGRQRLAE
UniProt P03372, whole entry: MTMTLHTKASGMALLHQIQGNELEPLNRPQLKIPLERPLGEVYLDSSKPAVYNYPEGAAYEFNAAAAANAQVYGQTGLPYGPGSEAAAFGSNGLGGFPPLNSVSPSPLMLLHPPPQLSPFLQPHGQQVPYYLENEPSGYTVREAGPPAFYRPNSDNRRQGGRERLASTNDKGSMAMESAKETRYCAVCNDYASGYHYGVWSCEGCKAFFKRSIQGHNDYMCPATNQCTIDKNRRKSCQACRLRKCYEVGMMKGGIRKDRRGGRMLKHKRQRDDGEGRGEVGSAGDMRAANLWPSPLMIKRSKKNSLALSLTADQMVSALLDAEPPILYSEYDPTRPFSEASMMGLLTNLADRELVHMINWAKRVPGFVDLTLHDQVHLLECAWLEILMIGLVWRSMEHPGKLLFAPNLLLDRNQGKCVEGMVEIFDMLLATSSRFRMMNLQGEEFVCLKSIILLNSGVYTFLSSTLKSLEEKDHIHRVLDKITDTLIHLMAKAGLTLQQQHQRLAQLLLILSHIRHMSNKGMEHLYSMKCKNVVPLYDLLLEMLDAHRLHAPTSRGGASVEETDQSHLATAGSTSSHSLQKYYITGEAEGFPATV
UniProt P11802, whole entry: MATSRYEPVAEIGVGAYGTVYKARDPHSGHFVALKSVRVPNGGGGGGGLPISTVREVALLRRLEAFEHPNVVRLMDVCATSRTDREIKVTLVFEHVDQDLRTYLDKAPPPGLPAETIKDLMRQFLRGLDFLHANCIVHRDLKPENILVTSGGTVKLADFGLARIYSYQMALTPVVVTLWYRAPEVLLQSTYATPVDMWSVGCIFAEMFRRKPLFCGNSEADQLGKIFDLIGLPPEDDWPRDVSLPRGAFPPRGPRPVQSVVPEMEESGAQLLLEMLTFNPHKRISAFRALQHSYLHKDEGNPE

Structure (SMILES): Oc1ccc2c(c1)CC[C@H](c1ccccc1)[C@@H]2c1ccc(OCCN2CCCC2)cc1
- ERα protein levels (ERα [3]): didn't affect ERα protein levels at 1 μM significantly
- % ERα Degradation (at 1 μM) (ERα [4]): D (D < 20%)

Structure (SMILES): Cc1sc2c(c1C)C(c1ccc(Cl)cc1)=N[C@@H](CC(=O)NCCCCCN1CCN(c3cc(N[C@@H]4CCCN(c5cccc(F)c5)C4)ncn3)CC1)c1nnc(C)n1-2
- BRD4 degradation, time course (BRD4 [5]): Significant degradation of BRD4 were readily detected as early as 4 hours
- % BRD4 Degradation (at 10 μM) (BRD4 [6]): A (A: ≥ 70%)
- IC50 (MV4;11 cells): 100 to 300 nM

Structure (SMILES): CC(C)n1c(C(C)(C)O)nc2c(F)cc(-c3nc(N[C@@H]4CCOC[C@H]4O)ncc3Cl)cc21
- cyclin D1 protein levels (cyclin D1 [7]): didn't affect cyclin D1 proteins levels dramatically

Structure (SMILES): Cc1sc2c(c1C)C(c1ccc(Cl)cc1)=N[C@@H](CC(=O)NCCNC(=O)CCCCN1CCN(c3cc(N[C@@H]4CCCN(c5cccc(F)c5)C4)ncn3)CC1)c1nnc(C)n1-2
- BRD4 degradation, time course (BRD4 [5]): Significant degradation of BRD4 were readily detected as early as 4 hours
- % BRD4 Degradation (at 10 μM) (BRD4 [6]): A (A: ≥ 70%)
- IC50 (MV4;11 cells): 100 to 300 nM

Structure (SMILES): C=CC(=O)N1CC2(CC(Nc3cccc(N4CCN(CC)CC4)n3)C2)C1
- covalent binding to purified DCAF1 (1058-1396) (DCAF1 (1058-1396) [1]): covalent binders
- Covalent binding, Reacted (DCAF1 (1058-1396) [2]): Y

Structure (SMILES): C=CC(=O)N1CC2(C1)CN(c1ncnc(N3CCOCC3)n1)C2
- covalent binding to purified DCAF1 (1058-1396) (DCAF1 (1058-1396) [1]): covalent binders
- Covalent binding, Reacted (DCAF1 (1058-1396) [2]): Y

Structure (SMILES): C=CC(=O)N1CC2(C1)CN(c1cccc(N3CCOCC3)n1)C2
- covalent binding to purified DCAF1 (1058-1396) (DCAF1 (1058-1396) [1]): covalent binders
- Covalent binding, Reacted (DCAF1 (1058-1396) [2]): Y

Structure (SMILES): CC(=O)c1c(C)c2cnc(Nc3ccc(N4CCNCC4)cn3)nc2n(C2CCCC2)c1=O
- cyclin D1 protein levels (cyclin D1 [8]): didn't affect cyclin D1 protein levels dramatically

Further lines, with some results ahead:

- covalent binding to purified DCAF1 (1058-1396) (DCAF1 (1058-1396) [1]): covalent binders
- Covalent binding, Reacted (DCAF1 (1058-1396) [2]): Y
Structure (SMILES): C=CC(=O)N1CCC2(C1)CN(c1nc(N3CCOCC3)c3occc3n1)C2

- covalent binding to purified DCAF1 (1058-1396) (DCAF1 (1058-1396) [1]): covalent binders
- Covalent binding, Reacted (DCAF1 (1058-1396) [2]): Y
Structure (SMILES): C=CC(=O)N1CCC(Nc2cc(N3CCN(CC)CC3)ncn2)CC1

- % CDK4 Degradation (at 1 μM) (CDK4 [10]; 1 μM): D (D < 20%)
- % CDK4 degradation (at 10 μM) (CDK4 [10]; 10 μM): D (D < 20%)
- % BRD4 Degradation (at 10 μM) (BRD4 [6]): D (D < 20%)
- IC50 (MV4;11 cells): > 1000 nM
Structure (SMILES): Fc1cccc(N2CCCC(Nc3cc(N4CCOCC4)ncn3)C2)c1 (centres unmarked)
- CDK4 protein levels (CDK4 [9]): didn't affect CDK4 proteins levels dramatically

- % CDK4 Degradation (at 1 μM) (CDK4 [14]): D (D < 20%)
Structure (SMILES): C[C@@]1(O)CCC[C@H]1n1c(=O)c(C(F)F)cc2cnc(NC3CCN(S(C)(=O)=O)CC3)nc21
- cyclin D1 protein levels (cyclin D1 [11]): didn't affect cyclin D1 and CDK4 protein levels at indicated concentrations
- CDK4 protein levels (CDK4 [12]): didn't affect cyclin D1 and CDK4 protein levels at indicated concentrations
- % Cyclin D1 Degradation (at 1 μM) (cyclin D1 [13]): D (D < 20%)

— patent US20260382728A1, “MODIFIED PROTEINS AND PROTEIN BINDERS AND DEGRADERS” (published 2026)
